Measurements: article PMC13288645, “A cryopreserved and in vivo-in vitro validated human induced pluripotent stem cell blood-brain barrier model for reliable neurotoxicity assessment” (NAM journal, 2025)

Experiments:
BBB = settings: cited from earlier work
[1] = source not stated; cited from earlier work
[2] = system: hiPSC-derived blood-brain barrier model; assay: Permeability testing (apparent permeability Papp) in tricellular hiPSC-derived BBB model, 96-transwell; settings: 96-transwell hiPSC-derived BBB, 60 min; 5 µM (17β-Estradiol 10 µM, Deltamethrin 3 µM)

Buprenorphine
In vivo human rate constant for compound transfer from blood across the BBB into brain (K1) (BBB; human clinical PET, ref Ghazanfari et al. 2024, Le Roux et al. 2019): 0.17 mL min^-1 cm^-3
human in vivo permeability K1 (elevated) (BBB; human, ref Delforge et al., 1995, Le Roux et al., 2019, Zubieta et al., 2000): > 0.1 mL cm^-3 min^-1
LogP [1]: 4.98
in vitro apparent permeability Papp [2]: > 15 × 10^–6 cm/s
